According to the supplement of paper PMC6089552:
Most of the hits are listed elsewhere, so they are rarer here than in the full data.

System: A673/TR/shEF
Assay: cell viability (LOESS-normalised, relative to median of negative controls) (log2 ratio); higher = more viable cells (less compound effect), active = hit call of the paper (over 3 MAD below the median)
Conditions: library screen: screen1, treatment time: 72 h
Procedure, shortened: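 A673/TR/shEF Ewing sarcoma cells (1,500 per well, 384-well plates) were grown with or without doxycycline to induce EWS-FLI1 shRNA knockdown, starting 24 h before compounds. Library compounds at two or more concentrations, with DMSO controls, were added for three days. Cell viability was read by CellTiter-Glo luminescence on an Envision reader, then LOESS-corrected per plate, divided by the median of negative controls and log2-transformed. Hits were wells at least three median absolute deviations from the median of all screened wells.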

Measured: cell viability (log2)

COc1c2ccccc2nc2occc12
inactive: 0.25 µM, EWS-FLI1 expression: high (no doxycycline) 0.0257 | 0.25 µM, EWS-FLI1 expression: low (doxycycline-induced shRNA knockdown) 0.165 | 2.5 µM, EWS-FLI1 expression: high (no doxycycline) 0.0579 | 2.5 µM, EWS-FLI1 expression: low (doxycycline-induced shRNA knockdown) 0.167
